# Yeast mating assay 1: variants of the scFv Ab-14

The measurements come from Engelhart et al. 2022 (doi:10.1038/s41597-022-01779-4) through the FLAb antibody collection.

Antigen: PDVDLGDISGINAS, a 14-residue peptide of the SARS-CoV-2 spike HR2 region.

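The starting antibody came from a phage panning campaign against this peptide. The library (AAYL50) carries one to three amino acid substitutions per variant, with no insertions or deletions. In AlphaSeq, yeast of one mating type display the scFv and yeast of the other type display the target. Pairs that bind mate more often; barcode pairs of the diploids are counted by sequencing. Read counts were normalised to the haploid input and turned into Kd by a linear fit to BCL2-family pairs of known affinity, for each replicate. The assay was run in three technical replicates.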

Parent: Ab-14, a human scFv built as VH, a 15-residue (Gly4Ser)3 linker, VL. Only the CDRs of the light chain vary.
VH: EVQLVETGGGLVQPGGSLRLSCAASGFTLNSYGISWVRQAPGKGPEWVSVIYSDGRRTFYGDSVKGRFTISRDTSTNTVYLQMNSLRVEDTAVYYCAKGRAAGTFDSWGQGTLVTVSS
VL: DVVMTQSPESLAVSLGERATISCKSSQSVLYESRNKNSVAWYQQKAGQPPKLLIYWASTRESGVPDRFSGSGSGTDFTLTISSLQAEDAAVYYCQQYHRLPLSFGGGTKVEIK

Each variant is given by its three light chain CDRs, as the data file delimits them; those of the parent are KSSQSVLYESRNKNSVA, WASTRES, QQYHRLPLS. This list gathers variants with a substitution at T59 (VL, numbered from residue 1). Kd is apparent (estimated from mating counts) and averaged on the log scale over replicates with a signal. Smaller is tighter. Where no diploid with the target was found in any replicate, the entry reads "nd": below detection, most likely a poor binder, though not proof of it. As a blank, each scFv also met three strains without target: over library AAYL50, 18% of these pairings were detected, typically at 15 µM and seldom below 970 nM. The control count says in how many pairings with the empty strains this scFv gave a signal.

Variant KSSQSLLYESRNKNSVA / WASNRES / QQYHRKPLS gave 20 nM (3 of 3 replicates; controls 1 of 9). For KSSQEVLYISRNKNSVA / WASRRES / QQYHRLPLS, the assay gave nd (0 of 3 replicates; controls 0 of 9). For KSSQSVLYESRNKNSVA / WASWRED / QQYHRLPLI, the assay gave 17 nM (3 of 3 replicates; controls 5 of 9). With KSSQSVAYESRNKNSVA / WASERES / VQYHRLPLS the result was 250 µM (2 of 3 replicates; controls 2 of 9). Variant KSSQGVLYESRNKNSVA / WASNRES / QQYHRLPLS gave 69 nM (3 of 3 replicates; controls 3 of 9). For KSSQSLLYESRNKNSVA / WATWRES / QQYHRLPLS, the assay gave 13 nM (3 of 3 replicates; controls 0 of 9). For KSSQSVLYESRNKNSVA / WASGRMS / QQYHILPLS, the assay gave 210 nM (1 of 3 replicates; controls 1 of 9). With KSSQSVLYESRNKNSVA / WASKREH / QLYHRLPLS the result was 27 µM (3 of 3 replicates; controls 0 of 9). For KSSQSVLYESRNLNSVA / WAIPRES / QQYHRLPLS, the assay gave 6.7 µM (1 of 3 replicates; controls 3 of 9).

For KSSISVMYESRNKNSVA / WASWRES / QQYHRLPLS, the assay gave 89 nM (3 of 3 replicates; controls 0 of 9). With KSSQSVLYESRNKNSVA / QASCRES / QQNHRLPLS the result was 5.7 µM (2 of 3 replicates; controls 1 of 9). Variant KSSDSVLYESRNKNSVA / WAVLRES / QQYHRLPLS showed 43 nM (3 of 3 replicates; controls 2 of 9). With KSSQSVLYESRNKNSVA / WASVLES / QQYHRSPLS the result was 4.2 µM (3 of 3 replicates; controls 1 of 9). Variant MSSQSVLYESRNKNSVA / WASHRES / QQYHRRPLS showed 15 µM (1 of 3 replicates; controls 0 of 9). For KSSQSVLYESRNKNSVA / WASNRES / QQRHRLPLS, the assay gave 46 µM (3 of 3 replicates; controls 4 of 9). Variant KSSQSVLYESRNRNSVA / WASSRES / QQYPRLPLS gave 42 µM (2 of 3 replicates; controls 4 of 9). For KSSQSVLYESRNKNPVA / WASKRES / QQYHRLPLS, the assay gave 1.4 µM (3 of 3 replicates; controls 1 of 9). Variant KSSQSVLYESRNKNSVT / WASQRES / QQYHRLPNS gave 13 µM (1 of 3 replicates; controls 6 of 9).

Variant KSSQIVLYESRNSNSVA / WASRRES / QQYHRLPLS showed nd (0 of 3 replicates; controls 0 of 9). Variant KSSFSVLYESRNLNSVA / WASWRES / QQYHRLPLS gave 6.0 µM (3 of 3 replicates; controls 8 of 9). For KSSQSVLYESRNKNSVA / RASMRES / QQYHRLPLS, the assay gave 25 nM (3 of 3 replicates; controls 1 of 9). Variant KPSQSVLYESRNKNSVA / WASRTES / QQYHRLPLS gave nd (0 of 3 replicates; controls 1 of 9). With KSSQSVLYESRNKNIVA / WASYRES / QQCHRLPLS the result was nd (0 of 3 replicates; controls 1 of 9). Variant KSSQSVPYESRNKNSVA / WASFRLS / QQYHRLPLS gave 1.1 µM (3 of 3 replicates; controls 0 of 9). For KSSQSVLYESRCKNAVA / WASCRES / QQYHRLPLS, the assay gave 350 nM (3 of 3 replicates; controls 3 of 9). Variant KSSQSVLYESRNKNSVA / WASIDES / QQIHRLPLS gave nd (0 of 3 replicates; controls 1 of 9). Variant KSSQSVLYESLNKNSVA / WASGREN / QQYHRLPLS showed 12 µM (3 of 3 replicates; controls 1 of 9).

With KSSVSVLYESRNKNSVA / WASGRES / QQYHRLPLQ the result was nd (0 of 3 replicates; controls 0 of 9). For PSSDSVLYESRNKNSVA / WASCRES / QQYHRLPLS, the assay gave 3.8 µM (2 of 3 replicates; controls 2 of 9). With KSSQSVLYESRNKNSVA / WASWRES / QQYHRLPLS the result was 85 nM (3 of 3 replicates; controls 0 of 9).

From the list, the first 2 with no signal in any replicate:

KSSQEVLYISRNKNSVA / WASRRES / QQYHRLPLS: nd (0 of 3 replicates; controls 0 of 9).
KSSQIVLYESRNSNSVA / WASRRES / QQYHRLPLS: nd (0 of 3 replicates; controls 0 of 9).